Reference: US12371472B2, “Multimeric IL-15 soluble fusion molecules and methods of making and using same” (Altor BioScience, LLC., priority 2010, dated 2025)

Test system: 5T33P and MOPC-315P cells
Experiment: Direct effect on myeloma cell viability and apoptosis in vitro
Assay type: cell-based, murine

Substance: IFN-γ: interferon-γ tested on 5T33P cells in vitro
- direct effect on tumor cell numbers and apoptosis in vitro: no direct effect
